Experimental data: publication PMC4980917

Target: C99, the 99 residue C-terminal fragment of the human amyloid precursor protein, recombinant, in LMPG micelles (human)
Assay: NMR titration

KD from the peak of A665: 280 µM
KD from the peak of G659: 252 µM
KD from the peak of T668: 384 µM
Substance: recombinant wild type human transthyretin (TTR) tetramer (from UniProt P02766 21-147) (natural protein)
